{"sequences": {"note": "Chains of the proteins cited; added tags and fusions are not shown. Lines headed by an entry give the natural chain unless they say otherwise; changes in a name come on top. Residues count along the entry.", "UniProt P50148": "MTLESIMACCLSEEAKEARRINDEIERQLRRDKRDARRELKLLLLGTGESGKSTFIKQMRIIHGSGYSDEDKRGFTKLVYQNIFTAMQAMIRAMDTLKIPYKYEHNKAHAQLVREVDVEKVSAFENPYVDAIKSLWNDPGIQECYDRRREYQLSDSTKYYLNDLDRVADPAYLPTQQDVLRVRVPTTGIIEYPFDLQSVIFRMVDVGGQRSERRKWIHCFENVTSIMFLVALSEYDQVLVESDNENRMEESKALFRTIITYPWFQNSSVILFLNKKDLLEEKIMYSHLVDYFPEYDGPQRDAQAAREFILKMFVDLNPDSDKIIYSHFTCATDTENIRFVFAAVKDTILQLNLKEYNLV", "UniProt P63096, 2-354, chain 1 of 3": "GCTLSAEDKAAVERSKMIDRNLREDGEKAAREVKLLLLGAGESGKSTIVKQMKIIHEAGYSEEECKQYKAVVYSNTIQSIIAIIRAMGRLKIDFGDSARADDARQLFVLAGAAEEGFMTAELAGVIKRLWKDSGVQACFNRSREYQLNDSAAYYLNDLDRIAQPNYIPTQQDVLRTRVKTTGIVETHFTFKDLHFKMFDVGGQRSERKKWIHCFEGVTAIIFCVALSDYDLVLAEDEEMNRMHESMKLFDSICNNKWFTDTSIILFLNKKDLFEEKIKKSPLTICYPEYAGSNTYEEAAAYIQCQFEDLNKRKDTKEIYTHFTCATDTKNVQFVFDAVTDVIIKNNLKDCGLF"}, "source": "paper PMC11295067", "key": {"[1]": {"target": "human Gq heterotrimer (human) (UniProt P50148)"}, "[2]": {"target": "human Gi heterotrimer (human) (UniProt P63096)"}}, "data": [{"substance": "Jumping Spider Rhodopsin-1 (JSR1) reconstituted with all-trans retinal 6.11 (ATR6.11) (receptor)", "values": [{"measurement": "GTPase-Glo assay: GTP depletion by Gq heterotrimer with JSR1/ATR6.11, after illumination", "setting": "[1]", "value": 47, "unit": "%"}, {"measurement": "GTPase-Glo assay: GTP depletion by Gq heterotrimer with JSR1/ATR6.11, without illumination (13% without JSR1)", "setting": "[1]", "value": 28, "unit": "%"}, {"measurement": "GTPase-Glo assay: GTP depletion by Gi heterotrimer with JSR1/ATR6.11, after illumination", "setting": "[2]", "value": 91, "unit": "%"}, {"measurement": "GTPase-Glo assay: GTP depletion by Gi heterotrimer with JSR1/ATR6.11, without illumination (58% without JSR1)", "setting": "[2]", "value": 80, "unit": "%"}]}]}
